For 17 compounds, Ki results are on record in patent US9611262B2, “Substituted 2-azabicycles and their use as orexin receptor modulators” (JANSSEN PHARMACEUTICA NV, priority 2014, dated 2017).

The chains behind the UniProt entries cited, without tags or fusion partners.
UniProt O43613, whole entry: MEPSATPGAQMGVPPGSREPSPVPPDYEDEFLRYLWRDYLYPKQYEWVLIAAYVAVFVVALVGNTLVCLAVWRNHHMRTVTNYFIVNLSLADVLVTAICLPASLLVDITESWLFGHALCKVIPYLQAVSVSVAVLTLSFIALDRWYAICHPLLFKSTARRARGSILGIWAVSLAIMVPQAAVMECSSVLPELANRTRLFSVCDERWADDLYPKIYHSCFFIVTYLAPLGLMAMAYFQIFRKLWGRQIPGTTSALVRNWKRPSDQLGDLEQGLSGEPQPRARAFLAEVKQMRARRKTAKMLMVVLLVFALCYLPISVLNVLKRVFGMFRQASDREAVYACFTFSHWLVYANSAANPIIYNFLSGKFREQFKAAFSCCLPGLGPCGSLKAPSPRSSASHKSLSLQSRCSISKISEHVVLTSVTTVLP

The target of one experiment is rat orexin 1 receptor (Rattus norvegicus, UniProt P56718). Put plainly: Rat orexin 1 receptor radioligand binding (competitive). Particulars: HEK293 cells stably expressing rat orexin 1 receptor; 4 nM radioligand; averages of 2-20 runs; read-out: rOX1 Ki. As to the method: (§1) The in vitro affinity of the compounds of the invention for the rat/human orexin 1 and human orexin 2 receptors was determined by competitive radioligand binding using [^3H](1-(5-(2-fluoro-phenyl)-2-methyl-thiazol-4-yl)-1-((S)-2-(5-phenyl-(1,3,4)oxadiazol-2-ylmethyl)-pyrrolidin-1-yl)-methanone) (Langmead et al., 2004) and [^3H]EMPA (n-ethyl-2[96-methoxy-pyridin-3-yl)-(toluene-2-sulfonyl)-amino]-N-pyridin-3-ylmethyl acetamide), respectively (Langmead et al., 2004, British Journal of Pharmacology 141:340-346; Malherbe et al., 2004, British Journal of Pharmacology 156:1326-41).
(§2) Data are analyzed using pc-Sandy macro and graphed on Graphpad Prism 5. For analysis, each concentration point is averaged from triplicate values and the averaged values are plotted on Graphpad Prism. The IC50 was determined by applying the following equation (GraphPad Prism 5.0, San Diego) for one site competition where X=log (concentration) and Y=specific binding. Top denotes the total [^3H]— (1-(5-(2-fluoro-phenyl)-2-methyl-thiazol-4-yl)-1-((S)-2-(5-phenyl-(1,3,4)oxadiazol-2-ylmethyl)-pyrrolidin-1-yl)-methanone) binding, bottom denotes the nonspecific [^3H]— (1-(5-(2-fluoro-phenyl)-2-methyl-thiazol-4-yl)-1-((S)-2-(5-phenyl-(1,3,4)oxadiazol-2-ylmethyl)-pyrrolidin-1-yl)-methanone) binding. Graphpad Prism calculates Ki value from IC50 and the pre-determined Kd values for [^3H]— (1-(5-(2-fluoro-phenyl)-2-methyl-thiazol-4-yl)-1-((S)-2-(5-phenyl-(1,3,4)oxadiazol-2-ylmethyl)-pyrrolidin-1-yl)-methanone) and [^3H]-EMPA. The Ki for each compound is then uploaded into 3DX. Each run comprises individual compounds in triplicate. The data in Table 1 and Table 2 represent averages from between 2-20 runs
(§3) Rat and Human Orexin 1 Receptor Radioligand Binding Studies
(§4) Human Embryonic Kidney 293 cells (HEK293) stably expressing rat orexin 1 receptor (Genebank accession number NM_001525) or Chinese ovary cells (CHO) stably expressing human orexin 1 receptor (Genebank accession number […]) were grown to confluency in DMEM (Hyclone, cat # SH30022), 10% FBS, 1× Pen/Strep, 1× sodium pyruvate, 10 mM HEPES, 600 μg/mL G418 and DMEM/F12 (Gibco, Cat #11039), 10% FBS, 1× Pen/Strep, 600 μg/mL G418 media, respectively on 150 cm^2 tissue culture plates, washed with 5 mM EDTA in PBS (HyClone Dulbecco's Phosphate Buffered Saline 1× with Calcium and Magnesium, Cat # SH30264.01, hereafter referred to simply as PBS) and scraped into 50 ml tubes. After centrifugation (2K×G, 5 min at 4° C.), the supernatant was aspirated and the pellets frozen and stored at −80° C. Cells were resuspended in PBS in the presence of 1 tablet of protease inhibitor cocktail (Roche, Cat. #11836145001) per 50 mL. […] Competition binding experiments in 96 well polypropylene plates were performed using [^3H]— (1-(5-(2-fluoro-phenyl)-2-methyl-thiazol-4-yl)-1-((S)-2-(5-phenyl-(1,3,4)oxadiazol-2-ylmethyl)-pyrrolidin-1-yl)-methanone) (Moraveck Corporation, specific activity=35.3 Ci/mmol), diluted to a 10 nM concentration in PBS (4 nM final). Compounds were solubilized in 100% DMSO (Acros Organics, Cat. #61042-1000) and tested over a range of 7 concentrations (from 0.1 nM to 10 μM). The final concentration of DMSO in the reactions is equal to or less than 0.1%. Total and nonspecific binding was determined in the absence and presence of 10 μM almorexant. The total volume of each reaction is 200 μL (20 μL of diluted compounds, 80 μL of [^3H]— (1-(5-(2-fluoro-phenyl)-2-methyl-thiazol-4-yl)-1-((S)-2-(5-phenyl-(1,3,4)oxadiazol-2-ylmethyl)-pyrrolidin-1-yl)-methanone) diluted in PBS and 100 μL of the cell suspension). Reactions were run for 60 min at room temperature and terminated by filtration through GF/C filter plates (PerkinElmer, Cat. #6005174) presoaked in 0.3% polyethylenimine using the cell harvester (PerkinElmer Filtermate). The plates were washed 3 times by aspirating 30 ml PBS through the plates. Plates were dried in 55° C. oven for 60 min, scintillation fluid was added, and the radioactivity was counted on a Topcount (Packard). […]

A further experiment concerns the target human orexin 1 receptor (Homo sapiens (Human), UniProt O43613). Nature of the experiment: Human orexin 1 receptor radioligand binding (competitive). Particulars: CHO cells stably expressing human orexin 1 receptor; 4 nM radioligand; averages of 2-20 runs; read-out: hOX1 Ki. On the procedure: as §1, §2, §3, §4

By Ki is commonly meant a dissociation constant, usually derived from enzyme kinetics or from competition with a known ligand. With `Cc1ccc(-n2nccn2)c(C(=O)N2C(C)C3CC(Oc4ccc(C(F)(F)F)cn4)C2C3)n1` (single isomer, unassigned) [Example 22A, (6-methyl-3-(2H-1,2,3-triazol-2-yl)pyridin-2-yl)((1R*,3S*,4S*,6S*)-3-methyl-6-((5-(trifluoromethyl)pyridin-2-yl)oxy)-2-azabicyclo[2.2.1]heptan-2-yl)methanone], the Ki on rat orexin 1 receptor was determined as 1240 nM.

`Cc1ccc(-c2ncccn2)c(C(=O)N2C(C)C3CC(Oc4ccc(C(F)(F)F)cn4)C2C3)n1` (single isomer, unassigned) [Example 16A, (6-methyl-3-(pyrimidin-2-yl)pyridin-2-yl)((1R*,3S*,4S*,6S*)-3-methyl-6-((5-(trifluoromethyl)pyridin-2-yl)oxy)-2-azabicyclo[2.2.1]heptan-2-yl)methanone]: the inhibition constant (Ki) at rat orexin 1 receptor was 1740 nM.

As for `Cc1ccc(-n2nccn2)c(C(=O)N2C(C)C3CC(Nc4cnc(C(F)(F)F)cn4)C2C3)n1` (single isomer, unassigned) [Example 69A, (6-methyl-3-(2H-1,2,3-triazol-2-yl)pyridin-2-yl)((1R*,3S*,4R*,6S*)-3-methyl-6-((5-(trifluoromethyl)pyrazin-2-yl)amino)-2-azabicyclo[2.2.1]heptan-2-yl)methanone], the Ki on rat orexin 1 receptor was more than 10000 nM.

Regarding `C[C@@H]1[C@H]2C[C@@H](Oc3ccc(C(F)(F)F)cn3)[C@H](C2)N1C(=O)c1c(F)cccc1-n1nccn1` (relative stereo) [Example 30, (2-fluoro-6-(2H-1,2,3-triazol-2-yl)phenyl)((1S*,3R*,4R*,6R*)-3-methyl-6-((5-(trifluoromethyl)pyridin-2-yl)oxy)-2-azabicyclo[2.2.1]heptan-2-yl)methanone], on human orexin 1 receptor, the inhibition constant (Ki) was found to be 6 nM.

For `CC1C2CC(Oc3ccc(C(F)(F)F)cn3)C(C2)N1C(=O)c1ccccc1-n1nccn1` (single isomer, unassigned) [Example 21, (R/S)-(2-(2H-1,2,3-triazol-2-yl)phenyl)(3-methyl-6-((5-(trifluoromethyl)pyridin-2-yl)oxy)-2-azabicyclo[2.2.1]heptan-2-yl)methanone], at human orexin 1 receptor, the Ki worked out at 4 nM.

Consider `[2H]C([2H])([2H])[C@]1([2H])[C@H]2C[C@@H](Oc3ccc(C(F)(F)F)cn3)[C@H](C2)N1C(=O)c1cc(F)ccc1-c1ncccn1` [Example 167, [(1R,2R,4S,5R)-2-deuterio-2-(trideuteriomethyl)-5-[[5-(trifluoromethyl)-2-pyridyl]oxy]-3-azabicyclo[2.2.1]heptan-3-yl]-(5-fluoro-2-pyrimidin-2-yl-phenyl)methanone], for which the Ki at rat orexin 1 receptor came to 4.8 nM.

As for `Cc1ccc(-n2nccn2)c(C(=O)N2C(C)C3CC(Oc4ccc(C(F)(F)F)cn4)C2C3)n1` (single isomer, unassigned) [Example 3B, (6-methyl-3-(2H-1,2,3-triazol-2-yl)pyridin-2-yl)((1S*,3S*,4R*,6R*)-3-methyl-6-((5-(trifluoromethyl)pyridin-2-yl)oxy)-2-azabicyclo[2.2.1]heptan-2-yl)methanone], the Ki at rat orexin 1 receptor was 351 nM.

For the compound `C[C@@H]1[C@H]2C[C@@H](Oc3ccc(C(F)(F)F)cn3)[C@H](C2)N1C(=O)c1ccccc1-c1cccc(F)n1` [Example 173, [2-(6-fluoro-2-pyridyl)phenyl]-[(1R,2R,4S,5R)-2-methyl-5-[[5-(trifluoromethyl)-2-pyridyl]oxy]-3-azabicyclo[2.2.1]heptan-3-yl]methanone], the Ki at rat orexin 1 receptor came to 3 nM.

`[2H]C([2H])([2H])[C@]1([2H])[C@H]2C[C@@H](Oc3ccc(C(F)(F)F)cn3)[C@H](C2)N1C(=O)c1nc(C)ccc1-n1nccn1` [Example 165, [(1R,2R,4S,5R)-2-deuterio-2-(trideuteriomethyl)-5-[[5-(trifluoromethyl)-2-pyridyl]oxy]-3-azabicyclo[2.2.1]heptan-3-yl]-[6-methyl-3-(triazol-2-yl)-2-pyridyl]methanone]: the Ki on rat orexin 1 receptor is 8 nM.

For the compound `CC1C2CC(Oc3ccc(C(F)(F)F)cn3)C(C2)N1C(=O)c1ccccc1-n1nccn1` (single isomer, unassigned) [Example 21B, (2-(2H-1,2,3-triazol-2-yl)phenyl)((1S*,3R*,4R*,6R*)-3-methyl-6-((5-(trifluoromethyl)pyridin-2-yl)oxy)-2-azabicyclo[2.2.1]heptan-2-yl)methanone], on human orexin 1 receptor, the Ki amounted to 3 nM.

For the compound `[2H]C1([2H])[C@H]2C[C@@H]([C@@H]1Oc1ccc(C(F)(F)F)cn1)N(C(=O)c1ccccc1-n1nccn1)[C@@H]2C` [Example 201, [(1R,3R,4S,6R)-2,2-dideuterio-6-methyl-3-[[5-(trifluoromethyl)-2-pyridyl]oxy]-5-azabicyclo[2.2.1]heptan-5-yl]-[2-(triazol-2-yl)phenyl]methanone], at human orexin 1 receptor, the Ki is 4 nM.

For the compound `CC1C2CC(Nc3cnc(C(F)(F)F)cn3)C(C2)N1C(=O)c1ccccc1-n1nccn1` (single isomer, unassigned) [Example 5A, (2-(2H-1,2,3-triazol-2-yl)phenyl)((1R*,3R*,4R*,6S*)-3-methyl-6-((5-(trifluoromethyl)pyrazin-2-yl)amino)-2-azabicyclo[2.2.1]heptan-2-yl)methanone], the inhibition constant Ki at rat orexin 1 receptor came to 5100 nM.

For the compound `C[C@@H]1[C@H]2C[C@@H](Oc3cnc(C(F)(F)F)cn3)[C@H](C2)N1C(=O)c1ccc(F)cc1-n1nccn1` (relative stereo) [Example 53, (4-fluoro-2-(2H-1,2,3-triazol-2-yl)phenyl)((1S*,3R*,4R*,6R*)-3-methyl-6-((5-(trifluoromethyl)pyrazin-2-yl)oxy)-2-azabicyclo[2.2.1]heptan-2-yl)methanone], at human orexin 1 receptor, the Ki stood at 31 nM.

As for `CC1C2CC(Oc3ccc(C(F)(F)F)cn3)C(C2)N1C(=O)c1ccccc1-n1nccn1` (single isomer, unassigned) [Example 2, (R/S)-(2-(2H-1,2,3-triazol-2-yl)phenyl)(3-methyl-6-((5-(trifluoromethyl)pyridin-2-yl)oxy)-2-azabicyclo[2.2.1]heptan-2-yl)methanone], the inhibitory constant (Ki) on human orexin 1 receptor was determined as 22 nM.

Turning to `CC1C2CC(Oc3ccc(C(F)(F)F)cn3)C(C2)N1C(=O)c1ccccc1-n1nccn1` (single isomer, unassigned) [Example 2B, (2-(2H-1,2,3-triazol-2-yl)phenyl)((1S*,3S*,4R*,6R*)-3-methyl-6-((5-(trifluoromethyl)pyridin-2-yl)oxy)-2-azabicyclo[2.2.1]heptan-2-yl)methanone], at human orexin 1 receptor, the Ki amounted to 54 nM.

Regarding `CC1C2CC(Oc3ccc(C(F)(F)F)cn3)C(C2)N1C(=O)c1ccccc1-n1nccn1` (single isomer, unassigned) [Example 21A, (2-(2H-1,2,3-triazol-2-yl)phenyl)((1R*,3S*,4S*,6S*)-3-methyl-6-((5-(trifluoromethyl)pyridin-2-yl)oxy)-2-azabicyclo[2.2.1]heptan-2-yl)methanone], at human orexin 1 receptor, the Ki was found to be 259 nM.

Turning to `O=C(c1ccccc1-n1nccn1)N1C(CF)C2CC(Oc3ccc(C(F)(F)F)cn3)C1C2` (racemic) [Example 73, (R/S)-(2-(2H-1,2,3-triazol-2-yl)phenyl)(3-(fluoromethyl)-6-((5-(trifluoromethyl)pyridin-2-yl)oxy)-2-azabicyclo[2.2.1]heptan-2-yl)methanone], the Ki at human orexin 1 receptor is 21 nM.
